Target: Prolyl 4-hydroxylase subunit alpha-1 (Homo sapiens, UniProt P13674)
Experiment: Inhibition of human recombinant CP4H1 expressed in Escherichia coli Origami B(DE3) at 10 uM pre-incubated for 2 mins followed by alpha-ketoglutarate addition using dansylGlyProProGlyOEt substrate in Tris-HCl buffer at pH 7.8 at 30 degC by HPLC method

Chains of the proteins cited; added tags and fusions are not shown. Lines headed by an entry give the natural chain unless they say otherwise; changes in a name come on top.
UniProt P13674: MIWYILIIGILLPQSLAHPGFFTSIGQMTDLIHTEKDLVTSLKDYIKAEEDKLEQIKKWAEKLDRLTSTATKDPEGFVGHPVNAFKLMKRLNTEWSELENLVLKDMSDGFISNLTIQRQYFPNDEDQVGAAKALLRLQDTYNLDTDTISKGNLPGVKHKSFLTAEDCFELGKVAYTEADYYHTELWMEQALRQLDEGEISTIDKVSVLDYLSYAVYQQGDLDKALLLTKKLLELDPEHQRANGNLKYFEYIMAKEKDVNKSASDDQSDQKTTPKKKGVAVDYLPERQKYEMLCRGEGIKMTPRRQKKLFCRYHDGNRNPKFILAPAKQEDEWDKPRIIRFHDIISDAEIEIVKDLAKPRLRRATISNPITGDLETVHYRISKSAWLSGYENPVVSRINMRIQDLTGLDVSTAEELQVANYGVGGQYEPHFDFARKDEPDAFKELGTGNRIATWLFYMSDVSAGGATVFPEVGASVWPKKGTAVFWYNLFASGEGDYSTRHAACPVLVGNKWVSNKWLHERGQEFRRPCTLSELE

Q: `O=C(O)c1ccc(-c2ccc(C(=O)O)cn2)nc1` was tested. Which inhibition did it give?
A: The inhibition was greater than 90%.

From ChEMBL document CHEMBL3585337, “Selective inhibition of prolyl 4-hydroxylases by bipyridinedicarboxylates” (Bioorg Med Chem, 2015)
